# Patent US9796710B2, “Dihydropyrrolopyridine inhibitors of ROR-gamma” (Vitae Pharmaceuticals, Inc., priority 2014, dated 2017)
# The chains behind the UniProt entries cited, without tags or fusion partners. A line that says so, or that is headed by a name, gives the form on record, which may keep a tag or linker. Residues count along the entry.
# UniProt P51449, 269-508 limits assumed: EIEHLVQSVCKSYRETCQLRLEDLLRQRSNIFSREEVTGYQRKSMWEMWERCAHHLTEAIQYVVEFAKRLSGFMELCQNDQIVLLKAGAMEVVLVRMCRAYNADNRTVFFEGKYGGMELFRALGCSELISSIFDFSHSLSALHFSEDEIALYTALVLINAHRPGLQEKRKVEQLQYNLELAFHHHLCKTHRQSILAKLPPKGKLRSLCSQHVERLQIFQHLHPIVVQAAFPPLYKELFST
# UniProt P51449, 25-518 with tags or gaps limits assumed: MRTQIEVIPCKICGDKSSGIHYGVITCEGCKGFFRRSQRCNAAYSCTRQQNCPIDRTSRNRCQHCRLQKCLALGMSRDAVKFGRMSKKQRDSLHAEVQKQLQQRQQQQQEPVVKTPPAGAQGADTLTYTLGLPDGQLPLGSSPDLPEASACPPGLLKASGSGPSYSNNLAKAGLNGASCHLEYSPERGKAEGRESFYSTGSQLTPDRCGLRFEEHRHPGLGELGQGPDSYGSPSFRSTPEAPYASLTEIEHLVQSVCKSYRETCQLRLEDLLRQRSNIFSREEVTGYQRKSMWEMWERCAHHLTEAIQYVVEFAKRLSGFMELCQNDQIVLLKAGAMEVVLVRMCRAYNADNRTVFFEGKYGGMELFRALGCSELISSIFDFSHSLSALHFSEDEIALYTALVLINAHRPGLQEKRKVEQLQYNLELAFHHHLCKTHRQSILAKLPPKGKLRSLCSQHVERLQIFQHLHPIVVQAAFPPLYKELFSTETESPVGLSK
# UniProt Q12809, whole entry: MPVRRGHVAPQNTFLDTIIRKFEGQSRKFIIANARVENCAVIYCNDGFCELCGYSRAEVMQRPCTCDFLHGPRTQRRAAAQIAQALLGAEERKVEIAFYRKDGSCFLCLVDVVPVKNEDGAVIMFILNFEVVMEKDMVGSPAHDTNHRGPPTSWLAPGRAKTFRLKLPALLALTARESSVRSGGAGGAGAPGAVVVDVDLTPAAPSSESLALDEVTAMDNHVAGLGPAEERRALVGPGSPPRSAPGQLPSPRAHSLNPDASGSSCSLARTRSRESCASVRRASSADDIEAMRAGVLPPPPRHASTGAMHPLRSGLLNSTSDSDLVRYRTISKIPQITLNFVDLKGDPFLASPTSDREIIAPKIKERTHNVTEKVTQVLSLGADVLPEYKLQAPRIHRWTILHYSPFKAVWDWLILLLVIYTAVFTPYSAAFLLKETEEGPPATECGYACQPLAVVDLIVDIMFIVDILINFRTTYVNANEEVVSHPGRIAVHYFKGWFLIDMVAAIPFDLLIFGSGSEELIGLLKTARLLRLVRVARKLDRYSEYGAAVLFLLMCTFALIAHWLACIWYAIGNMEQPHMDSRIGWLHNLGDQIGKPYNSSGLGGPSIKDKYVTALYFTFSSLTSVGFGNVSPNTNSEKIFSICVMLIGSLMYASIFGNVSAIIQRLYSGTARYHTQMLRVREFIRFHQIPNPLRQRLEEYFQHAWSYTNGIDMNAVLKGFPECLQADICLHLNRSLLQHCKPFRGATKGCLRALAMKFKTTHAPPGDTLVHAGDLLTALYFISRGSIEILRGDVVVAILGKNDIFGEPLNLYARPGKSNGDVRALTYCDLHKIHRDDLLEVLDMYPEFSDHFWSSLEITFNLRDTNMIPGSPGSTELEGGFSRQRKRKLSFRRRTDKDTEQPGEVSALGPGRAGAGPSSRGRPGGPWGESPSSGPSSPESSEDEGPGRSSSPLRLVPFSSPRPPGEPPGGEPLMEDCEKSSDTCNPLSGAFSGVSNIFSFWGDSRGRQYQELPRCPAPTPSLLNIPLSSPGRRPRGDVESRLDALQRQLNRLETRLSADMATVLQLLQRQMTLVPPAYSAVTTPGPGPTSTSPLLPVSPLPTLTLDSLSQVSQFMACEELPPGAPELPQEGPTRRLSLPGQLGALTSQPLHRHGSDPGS
# How the values were obtained:
# [1] = biological target: recombinant RORγ Ligand Binding Domain (LBD) protein (Homo sapiens (Human), UniProt P51449); assay: Radio-Ligand RORγ Binding Assay (Assay 1); settings: read-out: RORγ Binding Ki Range* (nM) (Assay 1)
# [2] = test system: IL-17A production; assay: Human Whole Blood Assay (Assay 3); settings: read-out: 50% Human Whole Blood Assay IC50, nM* (Assay 3); IL-17A secretion, CytoStim, 48 h, 50% blood/media
# [3] = biological target: hERG (human ether-a-go-go-related gene) potassium ion channel (Homo sapiens (Human), UniProt Q12809)
# [4] = biological target: full-length RORγt in Jurkat cells (Homo sapiens (Human), UniProt P51449); settings: read-out: RORγt5X IC50 Range* (nM) (Assay 2)
SMILES,"Ki ([1]; cell-free competition with 25-hydroxy [26,27-3H]-cholesterol) [nM]",IC50 [2] [nM],inhibition [3] [%],"IC50 ([4]; Jurkat cells, Nanoluc luciferase reporter) [nM]",Ki [1] [nM],IC50 [4] [nM]
CC(C)[C@H]1c2ncc(C(=O)N[C@@H](CO)c3ccc(S(C)(=O)=O)cc3)cc2CN1C[C@H]1CC[C@H](C(F)(F)F)CC1,< 100,100 to 200,3.2,< 100,–,–
CC(C)[C@H]1c2ncc(C(=O)N[C@@H](CO)c3ccc(S(C)(=O)=O)cc3)cc2CN1C[C@H]1CC[C@@H](C(F)(F)F)CC1,–,–,–,–,< 100,> 1000
CCS(=O)(=O)c1ccc([C@H](CO)NC(=O)c2cnc3c(c2)CN(C[C@H]2CC[C@H](C(F)(F)F)OC2)[C@H]3C(C)C)cc1,–,< 100,–,–,< 100,< 100

# Where two headings read alike, the source gives them in different places.
